ChEMBL document CHEMBL1649335, “Discovery of {1-[4-(2-{hexahydropyrrolo[3,4-c]pyrrol-2(1H)-yl}-1H-benzimidazol-1-yl)piperidin-1-yl]cyclooctyl}methanol, systemically potent novel non-peptide agonist of nociceptin/orphanin FQ receptor as analgesic for the treatment of neuropathic pain: design, synthesis, and structure-activity …” (Bioorg Med Chem, 2010)

Chains of the proteins cited; added tags and fusions are not shown.
UniProt P35372, whole entry: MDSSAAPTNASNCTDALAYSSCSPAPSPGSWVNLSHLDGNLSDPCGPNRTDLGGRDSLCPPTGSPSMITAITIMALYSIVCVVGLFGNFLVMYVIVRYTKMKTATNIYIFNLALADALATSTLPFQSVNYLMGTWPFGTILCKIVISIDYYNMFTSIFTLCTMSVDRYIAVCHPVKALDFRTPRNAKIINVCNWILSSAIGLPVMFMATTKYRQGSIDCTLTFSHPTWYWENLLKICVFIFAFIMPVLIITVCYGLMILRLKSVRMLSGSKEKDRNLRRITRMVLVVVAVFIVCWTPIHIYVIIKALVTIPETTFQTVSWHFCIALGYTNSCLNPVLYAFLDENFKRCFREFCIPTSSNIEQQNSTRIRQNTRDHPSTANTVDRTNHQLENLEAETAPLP
UniProt P41145, whole entry: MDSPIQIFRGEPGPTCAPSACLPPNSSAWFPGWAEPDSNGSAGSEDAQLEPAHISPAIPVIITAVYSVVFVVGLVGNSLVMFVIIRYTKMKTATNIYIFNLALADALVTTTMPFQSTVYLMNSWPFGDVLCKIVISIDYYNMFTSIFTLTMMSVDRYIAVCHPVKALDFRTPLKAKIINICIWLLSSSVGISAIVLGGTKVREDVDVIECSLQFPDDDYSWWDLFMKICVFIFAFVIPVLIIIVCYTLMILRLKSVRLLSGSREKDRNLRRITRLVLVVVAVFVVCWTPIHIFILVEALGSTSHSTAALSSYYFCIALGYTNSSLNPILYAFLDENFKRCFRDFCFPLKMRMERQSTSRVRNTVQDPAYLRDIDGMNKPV
UniProt P41146, whole entry: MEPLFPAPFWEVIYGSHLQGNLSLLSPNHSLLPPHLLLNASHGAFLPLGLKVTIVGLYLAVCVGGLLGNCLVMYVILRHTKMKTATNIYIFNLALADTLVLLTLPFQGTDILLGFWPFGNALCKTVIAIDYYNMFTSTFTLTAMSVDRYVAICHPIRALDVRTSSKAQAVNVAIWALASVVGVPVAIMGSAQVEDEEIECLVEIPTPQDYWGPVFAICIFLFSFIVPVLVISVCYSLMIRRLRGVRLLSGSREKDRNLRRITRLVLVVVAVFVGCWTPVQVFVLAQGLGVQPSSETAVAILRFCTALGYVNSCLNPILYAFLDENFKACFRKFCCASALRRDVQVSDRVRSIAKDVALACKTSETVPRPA
UniProt P41143, whole entry: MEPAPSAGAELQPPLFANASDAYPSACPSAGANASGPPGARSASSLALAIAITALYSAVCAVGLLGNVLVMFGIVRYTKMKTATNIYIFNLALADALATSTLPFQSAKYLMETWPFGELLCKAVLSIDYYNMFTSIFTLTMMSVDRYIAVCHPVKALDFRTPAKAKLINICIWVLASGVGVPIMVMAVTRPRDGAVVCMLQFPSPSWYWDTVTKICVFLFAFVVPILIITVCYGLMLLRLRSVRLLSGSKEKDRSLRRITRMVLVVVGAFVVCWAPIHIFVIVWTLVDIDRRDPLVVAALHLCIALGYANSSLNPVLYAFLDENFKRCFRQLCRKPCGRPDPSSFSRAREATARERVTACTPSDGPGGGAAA

How the values were obtained:
Mu-type opioid receptor [1] = target: T1, Mu-type opioid receptor (Homo sapiens, UniProt P35372); conditions: cho-k1
[2] = target: T2, Kappa-type opioid receptor (Homo sapiens, UniProt P41145); conditions: hek293
[3] = target: T2, Kappa-type opioid receptor; conditions: hek293; remark: listed apart in the source
Nociceptin receptor [4] = target: T3, Nociceptin receptor (Homo sapiens, UniProt P41146); conditions: hek293
[5] = target: Delta-type opioid receptor (Homo sapiens, UniProt P41143); conditions: cho-k1
Mu-type opioid receptor [6] = target: T1, Mu-type opioid receptor; conditions: cho-k1; remark: listed apart in the source
Nociceptin receptor [7] = target: T3, Nociceptin receptor; conditions: hek293; remark: listed apart in the source

Work on `O=c1[nH]c2ccccc2n1C1CCN(C2(CO)CCCCCCC2)CC1` yielded a Ki (Mu-type opioid receptor [1]) of 16 nM, an EC50 [2] of 194 nM and a Ki [3] of 239 nM. For the same compound, the EC50 (Nociceptin receptor [4]) was 37 nM, the Ki [5] was > 5000 nM and the EC50 (Mu-type opioid receptor [6]) was 144 nM. It also gave a Ki (Nociceptin receptor [7]) of 4.29 nM.
